Measured values as given in paper PMC12563520, “Asiatic Acid from Centella asiatica as a Potent EGFR Tyrosine Kinase Inhibitor with Anticancer Activity in NSCLC Cells Harboring Wild-Type and T790M-Mutated EGFR” (Biomolecules, 2025).

Key:
[1] = system: p-ERK (Thr202/Tyr204) in A549 cells; assay: Western blot of p-ERK, A549; type: cell-based, human; conditions: A549, 10 μM, 24 h, vs DMSO
Protocol: (§1) Cells were plated at 200,000 cells/well in a 6-well plate and allowed to adhere for 24 h. They were then treated with the tested compound at varying concentrations for 24 h. For A549 cells, treatment was performed in serum-free medium for 24 h, followed by stimulation with 100 ng/mL human EGF for 10 min prior to harvesting. Cells were harvested by trypsinization, lysed in RIPA buffer [50 mM Tris-HCl (pH 7.4), 150 mM NaCl, 1% NP-40, 1% Na-deoxycholate, and 0.1% SDS] with protease and phosphatase inhibitors, and incubated on ice for 30 min. Lysates were centrifuged, and protein concentration was determined using the Bradford assay. Equal amounts (30 μg) were separated by 10% SDS-PAGE and transferred to a […] membrane (Immobilon®-P, Merck Millipore, Burlington, MA, USA). The membrane was blocked with 5% skim milk in 1X TBST and incubated overnight at 4 °C with primary antibodies (Table S2) diluted 1:1000 in 1% skim milk-TBST or 1% BSA-TBST. […] Protein signals were detected using Luminata^TM Crescendo Western HRP Substrate (Merck Millipore) and imaged with an ImageQuant 800 system (GE Healthcare Bio-Sciences, Uppsala, Sweden). […] The detected signal was quantified using Image Studio Lite (version 5.2, LICORbio^TM, Lincoln, NE, USA).

[2] = system: p-Akt (Ser473) in A549 cells; assay: Western blot of p-Akt, A549; type: cell-based, human; conditions: A549, 10 μM, 24 h, vs DMSO
Protocol: as §1

For C#Cc1cccc(Nc2ncnc3cc(OCCOC)c(OCCOC)cc23)c1 [Erlotinib, reference compound], the “p-ERK expression (fold), Mean” value [1] was 0.287 fold, the “p-ERK expression (fold), Mean” value ([1]; listed as erlotinib) was “significantly (p < 0.0001) reduced” and the “p-Akt expression (fold), Mean” value [2] was 0.360 fold. For the same compound, the “p-Akt expression (fold), Mean” value ([2]; listed as erlotinib) was “significantly (p < 0.0001) reduced”.
